# Yeast mating assay 2: variants of the scFv Ab-91

From the AlphaSeq antibody data of Engelhart et al. 2022 (doi:10.1038/s41597-022-01779-4), copy in the FLAb collection.

Target: peptide PDVDLGDISGINAS, taken from heptad repeat 2 (HR2) of SARS-CoV-2 spike.

Each scFv is VL, a (GGGGS)3 linker, VH, as in the parent Ab-91, and differs from it in the CDRs of the heavy chain only.
VL: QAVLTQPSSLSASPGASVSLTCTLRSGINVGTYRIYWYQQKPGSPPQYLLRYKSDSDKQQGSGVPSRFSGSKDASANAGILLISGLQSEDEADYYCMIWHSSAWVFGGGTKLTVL
VH: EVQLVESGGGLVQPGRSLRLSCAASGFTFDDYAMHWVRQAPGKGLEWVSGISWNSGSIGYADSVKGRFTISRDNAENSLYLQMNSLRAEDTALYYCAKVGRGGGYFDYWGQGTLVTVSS

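The starting antibody came from a phage panning campaign against this peptide. AAYL51 was designed without a model: most single CDR substitutions and a random sample of double and triple ones. The assay is AlphaSeq: two haploid yeast populations carry antibody and antigen on their surface. Mating (16 h, 30 °C) was followed by selection of diploids and sequencing of their barcodes. A regression on co-assayed BCL2-family reference pairs converts the normalised counts of each replicate to an apparent Kd. There are three technical replicates.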

Each variant's VH is given in full.
Values are apparent Kd, the geometric mean of the replicates that gave a signal; lower means stronger binding.
Where no diploid with the target was found in any replicate, the entry reads "no signal": below detection, most likely a poor binder, though not proof of it.
As a blank, each scFv also met three strains without target: over library AAYL51, 21% of these pairings were detected, typically at 34 µM and seldom below 1.8 µM.

VH | apparent Kd | detected
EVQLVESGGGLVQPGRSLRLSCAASGFTFDDYAEHWVRQAPGKGLEWVSYISWNSGSIGYADCVKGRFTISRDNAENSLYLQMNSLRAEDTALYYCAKVGRGGGYFDYWGQGTLVTVSS | no signal | 0/3
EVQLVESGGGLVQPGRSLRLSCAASGFTFDDIAMHWVRQAPGKGLEWVSGISWNSMSIGYADSVKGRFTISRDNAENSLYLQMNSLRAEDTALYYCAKVGNGGGYFDYWGQGTLVTVSS | no signal | 0/3
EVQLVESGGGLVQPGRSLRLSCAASGFTFDDYAMHWVRQAPGKGLEWVSGISWNSGSIGYHDSVKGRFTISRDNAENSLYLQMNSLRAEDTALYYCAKPFRGGGYFDYWGQGTLVTVSS | 190 nM | 3/3
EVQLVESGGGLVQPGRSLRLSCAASGFTFDDYAMHWVRQAPGKGLEWVSGISWNSGSIGYAGSVKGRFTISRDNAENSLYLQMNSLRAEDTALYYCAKVGRGGGYFDNWGQGTLVTVSS | no signal | 0/3
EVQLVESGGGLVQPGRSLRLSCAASGFTFDDYAMHWVRQAPGKGLEWVSGISWNSGSNGYADSVQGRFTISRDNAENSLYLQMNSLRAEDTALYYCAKVGRGGGYVDYWGQGTLVTVSS | 71 µM | 1/3
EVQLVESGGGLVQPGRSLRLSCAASGFTFDDYAMHWVRQAPGKGLEWVSGISWQSGSIGYADSVKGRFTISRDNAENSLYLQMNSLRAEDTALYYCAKVGRGGKYKDYWGQGTLVTVSS | 12 µM | 3/3
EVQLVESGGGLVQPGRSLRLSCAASGFTFDDYRMHWVRQAPGKGLEWVSGISNNSGSIGYACSVKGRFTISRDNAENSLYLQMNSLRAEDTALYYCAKVGRGGGYFDYWGQGTLVTVSS | 230 µM | 2/3
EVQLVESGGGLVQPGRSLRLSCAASGFTFDDYLMEWVRQAPGKGLEWVSGISWNSGSIGYADSVKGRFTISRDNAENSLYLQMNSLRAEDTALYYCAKEGRGGGYFDYWGQGTLVTVSS | no signal | 0/3
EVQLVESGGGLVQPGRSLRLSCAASPFTFDDYNMHWVRQAPGKGLEWVSGISWNSGSIGYADSVKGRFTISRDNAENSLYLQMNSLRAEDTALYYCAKVGRGGGYFDIWGQGTLVTVSS | 36 µM | 2/3

Continued, with the values leading:

apparent Kd | detected | VH
no signal | 0/3 | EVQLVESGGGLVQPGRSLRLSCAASGFTFDDYAMHWVRQAPGKGLEWVSGTSWNSGSGGYAASVKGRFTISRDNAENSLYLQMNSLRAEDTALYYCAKVGRGGGYFDYWGQGTLVTVSS
230 nM | 3/3 | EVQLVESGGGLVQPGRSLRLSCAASGFDFDDYAMHWVRQAPGKGLEWVSGISWNSGSHGYADSVKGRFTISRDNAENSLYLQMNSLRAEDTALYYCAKVGRGGGYFDYWGQGTLVTVSS
4.7 µM | 1/3 | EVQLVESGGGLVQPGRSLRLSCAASGTTFDDYMMHWVRQAPGKGLEWVSGISWLSGSIGYADSVKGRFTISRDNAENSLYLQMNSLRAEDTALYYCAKVGRGGGYFDYWGQGTLVTVSS
16 µM | 1/3 | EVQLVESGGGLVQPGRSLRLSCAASCFTFDDYNMHWVRQAPGKGLEWVSGISWNSGIIGYADSVKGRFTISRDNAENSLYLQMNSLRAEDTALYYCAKVGRGGGYFDYWGQGTLVTVSS
no signal | 0/3 | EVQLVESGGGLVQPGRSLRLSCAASGFTFDDYAMLWVRQAPGKGLEWVSGLSWNSGSFGYADSVKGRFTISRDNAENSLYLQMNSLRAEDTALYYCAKVGRGGGYFDYWGQGTLVTVSS
93 µM | 1/3 | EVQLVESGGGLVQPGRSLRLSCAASGFTFDDYVMHWVRQAPGKGLEWVSSISWNSGHIGYADSVKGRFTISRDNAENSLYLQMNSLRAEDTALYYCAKVGRGGGYFDYWGQGTLVTVSS
no signal | 0/3 | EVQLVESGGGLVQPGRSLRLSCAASGFWFDDYQMHWVRQAPGKGLEWVSYISWNSGSIGYADSVKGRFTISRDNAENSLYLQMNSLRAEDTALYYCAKVGRGGGYFDYWGQGTLVTVSS
300 nM | 3/3 | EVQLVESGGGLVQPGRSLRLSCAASGFTFRDYAMHWVRQAPGKGLEWVSGISWNSGSIGYAMWVKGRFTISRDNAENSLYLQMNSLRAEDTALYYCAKVGRGGGYFDYWGQGTLVTVSS
42 µM | 2/3 | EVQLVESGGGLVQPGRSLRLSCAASGFTFDDYAMHWVRQAPGKGLEWVSPISANSGSIGYASSVKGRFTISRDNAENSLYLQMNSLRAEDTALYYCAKVGRGGGYFDYWGQGTLVTVSS

Picked from the list: the 2 lowest averages where every replicate gave a value.

VH | apparent Kd | detected
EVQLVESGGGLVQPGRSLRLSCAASGFTFDDYAMHWVRQAPGKGLEWVSGISWNSGSIGYHDSVKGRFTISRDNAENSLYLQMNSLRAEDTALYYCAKPFRGGGYFDYWGQGTLVTVSS | 190 nM | 3/3
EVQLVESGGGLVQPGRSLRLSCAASGFDFDDYAMHWVRQAPGKGLEWVSGISWNSGSHGYADSVKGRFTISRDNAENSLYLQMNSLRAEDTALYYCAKVGRGGGYFDYWGQGTLVTVSS | 230 nM | 3/3